Values joined by “and” are separate entries in the source; they are usually repeats but may differ in a detail not shown here. Equal entries are not always repeated. This is a selection; strong and weak results do not stand in their true shares. Active and inactive are the calls of the source. Calls come from the whole dose curve; as a rule, active = well fitted inhibition curve with a large enough effect; inconclusive = small, poorly fitted or top-dose-only effect, or effect the other way; inactive = flat fitted curve, though single readings scatter.
Biological target: Alpha-galactosidase A (Homo sapiens) (UniProt P06280)
Assay: qHTS Assay for Inhibitors and Activators of Human alpha-Galactosidase From Spleen Homogenate;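 note: 0% = enzyme with vehicle and -100% = no enzyme basal signal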
Details: 4MU-alpha-Gal fluorescence, 40 min; at 80 µM (top of the series)
Excerpt: NIH Chemical Genomics Center [NCGC] NIH Molecular Libraries Probe Production Centers Network [MLPCN] MLPCN Grant: R03 MH084842-01 Assay Submitter (PI): Wei Zheng NCGC Assay Overview: Alpha-galactosidase is a homodimeric glycoprotein that hydrolyzes the terminal alpha-galactosyl moieties from glycolipids and glycoproteins. Deficiency of this enzyme results in Fabry Disease with progressive accumulation of globotriaosylceramide and other glycosphingolipids in vascular endothelial cells that causes renal failure, myocardial infarction and stroke, and premature death in patients. […]
NCGC Assay Protocol Summary: This is a fluorogenic enzyme assay with 4-methylumbelliferyl-alpha-D-galactopyranoside as the substrate and human spleen homogenate containing alpha-galactosidase as the enzyme preparation. Upon hydrolysis of this fluorogenic substrate, the resulting product, 4-methylumbelliferone (which excites at 365 nm and emits at 440 nm) can be detected by a fluorescence plate reader. […] The AC50 values were determined from concentration-response data modeled with the standard Hill equation. […] (3) Add 2 ul of substrate (1 mM final) (4) Incubate at 37C for 40 min (5) Add 2 ul stop solution (1M NaOH and 1M Glycine mixture, pH 10) (6) Detect the assay plate in a ViewLux plate reader (PerkinElmer) with Ex=365 nm and Em=440nm. […]

By UniProt entry, the sequences of proteins in these tests, tags left out. Residues count along the entry.
UniProt P06280, 32-429 limits assumed: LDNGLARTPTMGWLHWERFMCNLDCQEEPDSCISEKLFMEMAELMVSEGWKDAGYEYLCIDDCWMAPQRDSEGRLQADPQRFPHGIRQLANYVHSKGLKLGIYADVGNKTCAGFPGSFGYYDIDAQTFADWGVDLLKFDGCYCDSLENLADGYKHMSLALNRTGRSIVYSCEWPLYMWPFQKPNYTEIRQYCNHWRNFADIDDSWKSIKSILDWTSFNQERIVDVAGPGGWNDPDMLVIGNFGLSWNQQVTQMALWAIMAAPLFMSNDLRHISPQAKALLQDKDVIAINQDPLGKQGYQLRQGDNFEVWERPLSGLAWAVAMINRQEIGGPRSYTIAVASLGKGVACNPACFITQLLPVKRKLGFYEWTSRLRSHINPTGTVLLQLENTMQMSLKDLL

SMILES | activity change, negative = inhibition
CN(CCCl)CCCl | inactive: 3.19% and inactive: 10.5%
O=[N+]([O-])C(Cl)(Cl)Cl | inactive: 9.86%
